Measured values published in patent US20040175378A1, “Selected antibody compositions and methods for binding to aminophospholipids” (Board of Regents, The University of Texas System, priority 2002, published 2004).

Tested on: HUVEC
Assay: MTT cytotoxicity assay
Type: cell-based, human
Description: FIG. 32. Duramycin conjugate is not cytotoxic. The naturally occurring duramycin compound and the biotinylated duramycin construct, DLB were tested for cytotoxic effects on human umbilical vein endothelial cells (HUVEC) using an MTT assay.
The biotinylated duramycin construct DLB was prepared as described in Example XV. The unmodified duramycin compound and DLB were tested for cytotoxic effects on HUVEC using an MTT assay.

Substance: duramycin
- cytotoxic effects on HUVEC: dose-dependent toxicity
